Reference: patent US12157727B2, “Substituted tetrahydroquinolin compounds as indoleamine 2,3-dioxygenase (IDO) inhibitors” (Merck Sharp & Dohme LLC, priority 2019, dated 2024)

The chains behind the UniProt entries cited, without tags or fusion partners.
UniProt P14902, whole entry: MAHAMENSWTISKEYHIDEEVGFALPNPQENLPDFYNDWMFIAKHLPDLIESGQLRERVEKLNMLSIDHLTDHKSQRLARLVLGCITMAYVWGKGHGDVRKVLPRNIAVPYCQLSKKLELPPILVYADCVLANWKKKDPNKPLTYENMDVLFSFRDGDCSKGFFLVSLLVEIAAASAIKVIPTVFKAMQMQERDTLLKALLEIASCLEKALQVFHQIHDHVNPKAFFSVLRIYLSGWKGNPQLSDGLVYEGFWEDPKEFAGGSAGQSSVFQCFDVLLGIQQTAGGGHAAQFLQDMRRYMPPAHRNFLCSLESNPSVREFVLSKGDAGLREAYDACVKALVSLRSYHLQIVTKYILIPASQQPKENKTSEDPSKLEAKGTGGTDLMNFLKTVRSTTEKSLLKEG

target: IDO1 (Homo sapiens, UniProt P14902); assay: IDO1 Cellular Assay in HeLa Cells Stimulated with IFNγ; format: cell-based; details: HeLa cells stimulated with IFNγ 100 ng/mL, 300 uM L-tryptophan, about 48 hours; read-out: IDO1 HeLa Cell Assay, IC50

| Structure (SMILES) | IC50 [nM] |
| --- | --- |
| FC(F)(F)c1cnc2nc(C3(c4ccc5c(c4)CCCN5c4ccccn4)CCC3)[nH]c2c1 [Example 11, 1-(pyridin-2-yl)-6-(1-(6-(trifluoromethyl)-1H-imidazo[4,5-b]pyridin-2-yl)cyclobutyl)-1,2,3,4-tetrahydroquinoline] | 4.88 |
| FC(F)(F)c1cnc2nc(C3(c4ccc5c(n4)CCCN5c4ccnc(C(F)(F)F)n4)CC3)[nH]c2c1 [Example 38, 6-{1-[6-(trifluoromethyl)-3H-imidazo[4,5-b]pyridin-2-yl]cyclopropyl}-1-[2-(trifluoromethyl)pyrimidin-4-yl]-1,2,3,4-tetrahydro-1,5-naphthyridine] | 12.5 |
| C[C@H](c1ccc2c(c1)CCCN2C(=O)OC1CC1)c1nc2ncc(C#N)cc2[nH]1 [Example 8, cyclopropyl (R)-6-(1-(6-cyano-1H-imidazo[4,5-b]pyridin-2-yl)ethyl)-3,4-dihydroquinoline-1(2H)-carboxylate] | 4.46 |
| O=C(C1CC1)N1CCCc2cc(C3(c4nc5ccc(Cl)cc5[nH]4)CCC3)ccc21 [Example 2, {6-[1-(6-chloro-1H-benzimidazol-2-yl)cyclobutyl]-3,4-dihydroquinolin-1(2H)-yl}(cyclopropyl) methanone] | 2.92 |
| FC(F)(F)c1nccc(N2CCCc3nc(C4(c5nc6cc(Cl)ccc6[nH]5)CCC4)ccc32)n1 [Example 33, 6-[1-(5-chloro-1H-benzimidazol-2-yl)cyclobutyl]-1-[2-(trifluoromethyl)pyrimidin-4-yl]-1,2,3,4-tetrahydro-1,5-naphthyridine] | 3.41 |
| Cc1nccc(N2CCCc3nc(C4(c5nc6ccc(C#N)cc6[nH]5)CC4)ccc32)n1 [Example 37, 2-(1-(5-(2-methylpyrimidin-4-yl)-5,6,7,8-tetrahydro-1,5-naphthyridin-2-yl)cyclopropyl)-1H-benzo[d]imidazole-6-carbonitrile] | 4.81 |
| N#Cc1cnc2nc(C3(c4ccc5c(c4)CCCN5C(=O)OC4CC4)CCC3)[nH]c2c1 [Example 10, cyclopropyl 6-(1-(6-cyano-1H-imidazo[4,5-b]pyridin-2-yl)cyclobutyl)-3,4-dihydroquinoline-1(2H)-carboxylate] | 4.23 |
| O=C(C1CC1)N1CCCc2cc(C3(c4nc5ncc(C(F)(F)F)cc5[nH]4)CCC3)ccc21 [Example 1, Cyclopropyl(6-(1-(6-(trifluoromethyl)-1H-imidazo[4,5-b]pyridin-2-yl)cyclobutyl)-3A-dihydroquinolin-1(2H)-yl)methanone] | 3.87 |
| N#Cc1cnc2nc(C3(c4ccc5c(n4)CCCN5C(=O)OC4CC4)CCC3)[nH]c2c1 [Example 24, cyclopropyl 6-[1-(6-cyano-1H-imidazo[4,5-b]pyridin-2-yl)cyclobutyl]-3,4-dihydro-1,5-naphthyridine-1(2H)-carboxylate] | 3.29 |
| CC(c1ccc2c(n1)CCCN2C(=O)OC1CC1)c1nc2ncc(C#N)cc2[nH]1 (centres unmarked) [Example 28, cyclopropyl 6-(1-(6-cyano-1H-imidazo[4,5-b]pyridin-2-yl)ethyl)-3,4-dihydro-1,5-naphthyridine-1(2H)-carboxylate] | 4.47 |
| N#Cc1ccc2nc(C3(c4ccc5c(n4)CCCN5c4ccnc(C(F)(F)F)n4)CC4(CC4)C3)[nH]c2c1 [Example 41, 2-(5-(5-(2-(trifluoromethyl)pyrimidin-4-yl)-5,6,7,8-tetrahydro-1,5-naphthyridin-2-yl)spiro[2,3]hexan-5-yl)-1H-benzo[d]imidazole-6-carbonitrile] | 3.18 |
| CC(c1ccc2c(c1)CCCN2C(=O)C1CC1)c1nc2ccccc2[nH]1 (centres unmarked) [Example 9] | 63.4 |
| CC(c1ccc2c(n1)CCCN2C(=O)OC1CC1)c1nc2ccc(C#N)cc2[nH]1 (centres unmarked) [Example 29, cyclopropyl 6-(1-(6-cyano-1H-benzo[d]imidazol-2-yl)ethyl)-3,4-dihydro-1,5-naphthyridine-1(2H)-carboxylate] | 2.48 |
| COC(=O)N1CCCc2cc(C3(c4nc5ncc(C(F)(F)F)cc5[nH]4)CCC3)ccc21 [Example 5, Methyl 6-(1-(6-(trifluoromethyl)-1H-imidazo[4,5-b]pyridin-2-yl)cyclobutyl)-3,4-dihydroquinoline-1(2H)-carboxylate] | 2.74 |
| FC(F)(F)c1cnc2[nH]c(C3(c4ccc5c(n4)CCCN5c4ccnc(C(F)(F)F)n4)CCC3)nc2c1 [Example 32, 6-{1-[6-(trifluoromethyl)-3H-imidazo[4,5-b]pyridin-2-yl]cyclobutyl}-1[2-(trifluoromethyl)pyrimidin-4-yl]-1,2,3,4-tetrahydro-1,5-naphthyridine] | 13 |
| FC(F)(F)c1cnc2nc(C3(c4ccc5c(c4)CCCN5c4ccncn4)CCC3)[nH]c2c1 [Example 12, 1-(pyrimidin-4-yl)-6-(1-(6-(trifluoromethyl)-1H-imidazo[4,5-b]pyridin-2-yl)cyclobutyl)-1,2,3,4-tetrahydroquinoline] | 10.5 |
| FC(F)(F)c1nccc(N2CCCc3nc(C4(c5nc6cc(Cl)cnc6[nH]5)CCC4)ccc32)n1 [Example 35, 6-[1-(6-chloro-3H-imidazo[4,5-b]pyridin-2-yl)cyclobutyl]-1-[2-(trifluoromethyl)pyrimidin-4-yl]-1,2,3,4-tetrahydro-1,5-naphthyridine] | 2.69 |
| N#Cc1ccc2nc(C3(c4ccc5c(c4)CCCN5C(=O)C4CC4)CCC3)[nH]c2c1 [Example 4, 2-{1-[1-(cyclopropane-carbonyl)-1,2,3,4-tetrahydroquinolin-6-yl]cyclobutyl}-1H-benzimidazole-6-carbonitrile] | 5.26 |
| N#Cc1ccc2nc(C3(c4ccc5c(n4)CCCN5C(=O)OC4CC4)CC4(CC4)C3)[nH]c2c1 [Example 40, cyclopropyl 6-(5-(6-cyano-1H-benzo[d]imidazol-2-yl)spiro[2.3]hexan-5-yl)-3,4-dihydro-1,5-naphthyridine-1(2H)-carboxylate] | 2.82 |

The remaining lines, values ahead:

| IC50 [nM] | Structure (SMILES) |
| --- | --- |
| 1.68 | O=C(C1CC1)N1CCCc2nc(C3(c4nc5cc(C(F)(F)F)cnc5[nH]4)CCC3)ccc21 [Example 13, Cyclopropyl(6-(1-(6-(trifluoromethyl)-3H-imidazo[4,5-b]pyridin-2-yl)cyclobutyl)-3,4-dihydro-1,5-naphthyridin-1(2H),-yl)methanone] |
| 2.14 | O=C([C@@H]1CCCCO1)N1CCCc2nc(C3(c4nc5ncc(C(F)(F)F)cc5[nH]4)CCC3)ccc21 [Example 15, (S)-(tetrahydro-2H-pyran-2-yl)(6-(1-(6-(trifluoromethyl)-1H-imidazo[4,5-b]pyridin-2-yl)cyclobutyl)-3,4-dihydro-1,5-naphthyridin-1(2H)-yl)methanone] |
| 0.982 | C[C@@H](c1ccc2c(n1)CCCN2C(=O)OC1CC1)c1nc2ccc(Cl)cc2[nH]1 [Example 26, cyclopropyl (S)-6-(1-(6-chloro-1H-benzo[d]imidazol-2-yl)ethyl)-3,4-dihydro-1,5-naphthyridine-1(2H)-carboxylate] |
| 1.8 | CCOC(=O)N1CCCc2nc(C3(c4nc5cc(C(F)(F)F)cnc5[nH]4)CCC3)ccc21 [Example 19, ethyl 6-{1-[6-(trifluoromethyl)-3H-imidazo[4,5-b]pyridin-2-yl]cyclobutyl}-3,4-dihydro-1,5-naphthyridine-1(2H)-carboxylate] |
| 0.693 | O=C(OC1CC1)N1CCCc2nc(C3(c4nc5ccc(Cl)cc5[nH]4)CCC3)ccc21 [Example 21, cyclopropyl 6-[1-(6-chloro-1H-benzimidazol-2-yl)cyclobutyl]-3,4-dihydro-1,5-naphthyridine-1(2H)-carboxylate] |
| 1.74 | O=C([C@H]1CCCCO1)N1CCCc2nc(C3(c4nc5ncc(C(F)(F)F)cc5[nH]4)CCC3)ccc21 [Example 16, (R)-(tetrahydro-2H-pyran-2-yl)(6-(1-(6-(trifluoromethyl)-1H-imidazo[4,5-b]pyridin-2-yl)cyclobutyl)-3,4-dihydro-1,5-naphthyridin-1(2H)-yl)methanone] |
| 1.35 | O=C(OC1CC1)N1CCCc2nc(C3(c4nc5ncc(C(F)(F)F)cc5[nH]4)CCC3)ccc21 [Example 23, cyclopropyl 6-{1-[6-(trifluoromethyl)-1H-imidazo[4,5-b]pyridin-2-yl]cyclobutyl}-3,4-dihydro-1,5-naphthyridine-1(2H)-carboxylate] |
| 1.94 | Cc1nccc(N2CCCc3nc(C4(c5nc6cc(C#N)ccc6[nH]5)CCC4)ccc32)n1 [Example 36, 2-{1-[5-(2-methylpyrimidin-4-yl)-5,6,7,8-tetrahydro-1,5-naphthyridin-2-yl]cyclobutyl}-1H-benzimidazole-6-carbonitrile] |
| 0.958 | O=C(c1ccccc1Cl)N1CCCc2nc(C3(c4nc5ncc(C(F)(F)F)cc5[nH]4)CCC3)ccc21 [Example 17, (2-chlorophenyl)[6-{1-[6-(trifluoromethyl)-1H-imidazo[4,5-b]pyridin-2-yl]cyclobutyl}-3,4-dihydro-1,5-naphthyridin-1(2H)-yl]methanone] |
| 2.29 | C[C@H](c1ccc2c(n1)CCCN2C(=O)OC1CC1)c1nc2ccc(Cl)cc2[nH]1 [Example 27, cyclopropyl (R)-6-(1-(6-chloro-1H-benzo[d]imidazol-2-yl)ethyl)-3,4-dihydro-1,5-naphthyridine-1(2H)-carboxylate] |
| 1.38 | O=C(OC1CC1)N1CCCc2nc(C3(c4nc5ncc(Cl)cc5[nH]4)CCC3)ccc21 [Example 22, cyclopropyl 6-[1-(6-chloro-1H-imidazo[4,5-b]pyridin-2-yl)cyclobutyl]-3,4-dihydro-1,5-naphthyridine-1(2H)-carboxylate] |
| 2.45 | O=C([C@H]1CCCO1)N1CCCc2cc(C3(c4nc5ncc(C(F)(F)F)cc5[nH]4)CCC3)ccc21 [Example 3, [(2R)-oxolan-2-yl][6-{1-[6-(trifluoromethyl)-1H-imidazo[4,5-b]pyridin-2-yl]cyclobutyl}-3,4-dihydroquinolin-1(2H)-yl]methanone] |
| 1.58 | O=C(C1CCCCO1)N1CCCc2nc(C3(c4nc5ncc(C(F)(F)F)cc5[nH]4)CCC3)ccc21 (centres unmarked) [Example 14, (tetrahydro-2H-pyran-2-yl)(6-(1-(6-(trifluoromethyl)-1H-imidazo[4,5-b]pyridin-2-yl)cyclobutyl)-3,4-dihydro-1,5-naphthyridin-1(2H),-yl)methanone] |
